# KDM4E inh – JMJD2E (human) inhibition | B2RXH2 | JMJD2E catalytic domain, FDH-coupled NADH fluorescence (FDH is formaldehyde dehydrogenase) | Potency, µM (series often up to 57.1 µM), for the others: at the top dose activity change, negative = inhibition, hits mostly inhibitors | 230,000 compounds, 1.6% hits; active = well fitted inhibition curve with a large enough effect, not every such curve was filed as active; inconclusive = small, poorly fitted or top-dose-only effect, or another doubt; inactive = no such curve, though single readings can be large or run the other way;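 also: potency is read from the fitted curve at half-maximal effect; 0% = wells with enzyme and -100% = buffer wells without enzyme; nearly all actives have a fitted effect of over 50% in size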
# Sfp inh – inhibitors of Bacillus subtilis Sfp phosphopantetheinyl transferase | Q9F4F7 | Biochemical Sfp PPTase activity, qHTS | Potency, µM, inactives show max response, negative = inhibition, most hits filed as inhibitors | 310,000 tested, 3.5% active | AID 1490; active = well fitted inhibition curve with a large enough effect; inconclusive = small, poorly fitted or top-dose-only effect, or another doubt; inactive = no such curve, though single readings can be large or run the other way;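 note: the enzyme is Sfp with the accession as filed and its product quenches rhodamine fluorescence; potency is the fitted concentration of half-maximal effect; 0% = enzyme reaction without inhibitor and -100% = no enzyme wells; top concentration of the series not given in the record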
#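 Compounds were incubated with enzyme (final 15 nM) for 15 min at room temperature before substrate addition started the reaction. Fluorescence at 525 nm excitation, 598 nm emission was recorded immediately and after 30 minutes.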
# G9a block – G9a (human) methyltransferase inhibition; AID 504332; Potency, µM (highest dose often 102 µM), for inactives: at the top dose activity, negative = inhibition, hits mostly inhibitors; G9a H3K9 monomethylation, AlphaScreen, 2 h; 350,000 compounds, 8.8% hits; Q96KQ7; also: potency is read from the fitted curve at half-maximal effect; % is scaled to controls: 0 for no effect and ±100 for the full control effect; nearly all actives have a fitted effect of over 75% in size
#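 AlphaScreen read-out: biotin-H3K9 peptide (500 nM) methylation by 20 nM enzyme with 20 uM SAM, 2 h at room temperature after 15 min compound preincubation; anti-monomethyl H3K9 antibody plus donor/acceptor beads, 10 min dark.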
# Lamin A splicing – LMNA splicing modulation; HeLa LMNA splicing GFP/RFP minigene ratio, 48 h; Potency, µM (series often up to 46.1 µM), inactives show top-dose ratio change, negative = inhibition, most hits filed as inhibitors; 200,000 compounds, 0.01% hits; AID 1487; active = well fitted inhibition curve with a large enough effect in the signal ratio, with a control signal flat, not every such curve was filed as active; inconclusive = small, poorly fitted or top-dose-only effect, or effect the other way, or a change in a side signal; the % refers to the signal ratio; also: potency is read from the fitted curve at half-maximal effect; % is scaled to controls: 0 for no effect and ±100 for the full control effect
#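 S3 HeLa stable clones carrying a lamin A-EGFP splicing minigene plus DsRed2 were seeded at 600 cells/well in Opti-MEM with 2% FBS, pin-dosed and incubated 48 h at 37°C. Acumen cytometry (488 nm) gave the GFP/RFP total-intensity ratio.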
# miR-21 reporter – miR-21 reporter, rising signal; HeLa miR-21 FLuc reporter, luciferase, 48 h; Potency, µM (highest dose often 38.3 µM), for the others: top-dose reporter change, positive = more light; 340,000 tested, under 10 active; AID 2288; active = well fitted rising curve with a large enough effect; inconclusive = small, poorly fitted or top-dose-only effect; inactive = no such curve, though single readings can be large or run the other way;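 further: % of control where 0% means no effect; miR-21 action dims this reporter so a rising signal means less miR-21 action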
#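 Compounds were titrated across several concentrations (up to approximately 40 uM) and incubated 48 hours with HeLa miR-21-FLuc reporter cells (miR-21 target sequence downstream of FLuc, endogenous miR-21). Readout was firefly luciferase luminescence after lytic detection reagent.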
# ALDH1A1 inh – ALDH1A1 (human) enzyme inhibition; P00352; Potency, µM (doses to about 75.3 µM), inactives show at the highest dose activity, negative = inhibition, actives largely listed as inhibitors; 220,000 compounds, 7.3% hits; Purified ALDH1A1, NADH fluorescence, propionaldehyde substrate; active = well fitted inhibition curve with a large enough effect, not every such curve was filed as active; inconclusive = small, poorly fitted or top-dose-only effect, or another doubt; inactive = no such curve, though single readings can be large or run the other way;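 also: potency is read from the fitted curve at half-maximal effect; plate controls were no enzyme wells and a reference inhibitor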
# Active calls of the source: *; ? = inconclusive; . = no result; [ ] = another dose, or the depositor's remark. A selection: hits, their analogues and other compounds. The true share with any hit is near 13%. Unless noted, calls follow the shape of the dose curve; as a rule, active = well fitted curve in the direction sought with a large enough effect; inconclusive = small, poorly fitted or top-dose-only effect, or another doubt; inactive = no such curve, though single readings can be large; an effect the other way counts as inactive or inconclusive.
[1] COc1ccc(S(=O)(=O)Nc2ccc(S(=O)(=O)N(C)C)cc2)cc1[N+](=O)[O-]
[2] CCN(CC)S(=O)(=O)c1ccc(NS(=O)(=O)c2ccc(OC)c([N+](=O)[O-])c2)cc1
[3] COc1ccc(C(=O)NNC(=O)c2ccncc2)cc1[N+](=O)[O-]
[4] O=C(CSc1nnc(-c2ccccc2Br)n1-c1ccccc1)c1ccc(F)cc1
[5] CN(C)c1ccc(P(=O)(OCc2ccccc2)C(O)c2ccccc2)cc1 (stereo not given)
[6] COc1ccc(NC(=O)c2ccc(-n3cccn3)c([N+](=O)[O-])c2)cc1
[7] COc1ccccc1NC(=O)c1ccc(-n2cccn2)c([N+](=O)[O-])c1
[8] COc1ccc(C(=O)NNC(=O)c2ccccc2[N+](=O)[O-])cc1[N+](=O)[O-]
assay / entry,1,2,3,4,5,6,7,8
KDM4E inh,6%,2%,.,.,-1%,7%,-7%,22%
Sfp inh,4%,7%,16%,.,15%,12%,4%,4%
G9a block,?,-22%,-10%,-8%[59 µM],-3%,20%[12.7 µM],.,.
Lamin A splicing,9%,0%,.,.,.,21%[46 µM],?,.
miR-21 reporter,-8%,-6%,-1%,24%,3%,-14%,-16%,-4%
ALDH1A1 inh,13µM*,?,.,.,-15%,?,25µM*,13µM*

[9] COc1ccccc1C(=O)NNC(=O)c1ccccc1[N+](=O)[O-]
[10] COc1ccc(C(=O)NNc2ccccc2)cc1OC
[11] COc1ccc(C(=O)NC(=S)Nc2cccnc2)cc1[N+](=O)[O-]
[12] CC1CCc2onc(C(=O)N3CCN(c4ccc(F)cc4)CC3)c2C1 (stereo not given)
[13] CCCCn1c(Oc2cccc(C(=O)OC)c2)nc2c1c(=O)n(C)c(=O)n2C
[14] Cc1ccc(-c2nc3cc(Cl)ccc3o2)cc1NC(=O)COc1ccc(F)cc1
[15] CCCCC(CC)CNC(=O)c1ccc2c(=O)n(CCOC)c(=O)[nH]c2c1 (stereo not given)
[16] COc1ccc(-c2nc3ccccc3o2)cc1NC(=O)c1ccc(N2CCC(C)CC2)c([N+](=O)[O-])c1
assay / entry,9,10,11,12,13,14,15,16
KDM4E inh,6%,0%,-3%,.,.,.,.,.
Sfp inh,1%,6%,-2%,.,.,.,.,.
G9a block,?,?,?,2%[59 µM],-2%[59 µM],3%[59 µM],1%[59 µM],-30%[59 µM]
Lamin A splicing,-13%,7%,.,?,?,17%[46 µM],.,.
miR-21 reporter,-3%,5%,3%,4%,-1%,-20%,?,-52%
ALDH1A1 inh,12%,22µM*,22µM*,.,.,.,.,.

# The closing 4 entries of the section above lead into the next.
[13] CCCCn1c(Oc2cccc(C(=O)OC)c2)nc2c1c(=O)n(C)c(=O)n2C
[14] Cc1ccc(-c2nc3cc(Cl)ccc3o2)cc1NC(=O)COc1ccc(F)cc1
[15] CCCCC(CC)CNC(=O)c1ccc2c(=O)n(CCOC)c(=O)[nH]c2c1 (stereo not given)
[16] COc1ccc(-c2nc3ccccc3o2)cc1NC(=O)c1ccc(N2CCC(C)CC2)c([N+](=O)[O-])c1
[17] CCO/C(C)=N/n1c2nc3ccccc3nc2c2c(=O)n(C3CCCC3)c(C)nc21
[18] Cc1nc2ccccc2c(=O)n1C1CCCCCC1
[19] CCOC(=O)c1c(S(=O)(=O)N2CCC(C(=O)NCc3ccccc3Cl)CC2)c(C)n(C)c1C
[20] O=C1NCCC/C1=N/Nc1ccc(F)cc1
[21] O=C(NN=C1CCCCCCC1)c1ccc(F)cc1
[22] Cc1ccc(-n2c(SCC(=O)N3CCCc4ccccc43)nnc2-c2cccnc2)c(C)c1
[23] O=C(CSc1nnc(-c2cccnc2)n1-c1ccc(SC(F)F)cc1)N1CCCc2ccccc21
[24] Nn1c(SCC(=O)N2CCCc3ccccc32)nnc1-c1ccccc1
assay / entry,13,14,15,16,17,18,19,20,21,22,23,24
KDM4E inh,.,.,.,.,?,-3%,.,-14%,49%,-4%,-8%,-3%
Sfp inh,.,.,.,.,-10%,12%,.,12%,-5%,2%,-10%,18%
G9a block,-2%[59 µM],3%[59 µM],1%[59 µM],-30%[59 µM],56µM*,-2%[59 µM],10%[59 µM],?,-8%,0%[2.33 µM],?,4%[12.7 µM]
Lamin A splicing,?,17%[46 µM],.,.,-6%,-2%,?,-10%[9.22 µM],.,-1%,2%,-7%
miR-21 reporter,-1%,-20%,?,-52%,-9%,-22%,-7%,4%,-24%,2%,-3%,-4%
ALDH1A1 inh,.,.,.,.,?,15%,.,13µM*,-12%,?,20µM*,-8%

[25] CCOc1ccccc1-n1c(SCC(=O)N2CCCc3ccccc32)nnc1-c1cccnc1
[26] Cc1ccccc1-c1noc(-c2ccc(NCc3ccco3)c([N+](=O)[O-])c2)n1
[27] c1n[nH]c(NC2=NCCC2)n1
[28] Clc1cccc(Cl)c1NC1=NCCC1
[29] CCn1c(C)c(C2N3CC4(C)CN2CC(CC)(C3)C4=O)c2ccccc21 (stereo not given)
assay / entry,25,26,27,28,29
KDM4E inh,-1%,.,-5%,4%,.
Sfp inh,-3%,.,45µM*,18%,.
G9a block,8%[59 µM],?,1%,-15%,2%[59 µM]
Lamin A splicing,-7%,.,-5%,8%,.
miR-21 reporter,0%,-31%,-1%,-1%,9%
ALDH1A1 inh,13µM*,.,5%,6%,.

# Source: PubChem BioAssay
